The values that follow come from patent US10918633B2, “Method of treating coronavirus” (MyMD Pharmaceuticals, Inc., priority 2015, dated 2021).

Amino acid sequences for entries named in this document (tags omitted).
UniProt P21397, whole entry, species assumed: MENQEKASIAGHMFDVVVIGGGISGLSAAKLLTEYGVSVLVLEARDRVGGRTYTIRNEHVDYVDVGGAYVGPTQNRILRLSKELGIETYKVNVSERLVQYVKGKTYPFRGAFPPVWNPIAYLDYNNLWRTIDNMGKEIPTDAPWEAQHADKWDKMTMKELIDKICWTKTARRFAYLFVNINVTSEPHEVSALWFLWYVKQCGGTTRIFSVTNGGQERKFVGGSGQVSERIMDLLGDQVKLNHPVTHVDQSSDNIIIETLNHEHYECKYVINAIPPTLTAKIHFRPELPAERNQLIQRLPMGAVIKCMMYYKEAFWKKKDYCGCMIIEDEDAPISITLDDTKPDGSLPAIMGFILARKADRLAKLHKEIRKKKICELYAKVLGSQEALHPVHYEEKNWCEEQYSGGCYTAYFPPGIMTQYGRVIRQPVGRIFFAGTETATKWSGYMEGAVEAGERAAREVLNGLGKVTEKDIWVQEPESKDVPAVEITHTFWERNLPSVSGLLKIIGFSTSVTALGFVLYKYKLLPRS

The target of the experiment is T1, MAO-A (Homo sapiens, UniProt P21397).
T1 construct: purchased
As to the kind of experiment: MAO-Glo luminescent assay, MAO-A inhibition. Format: biochemical. The settings on record: compared with myosmine, anatabine, anabasine, nornicotine; FIG. 1. From the text: This example describes experiments for determining monoamine oxidase (MAO) inhibition for isomyosmine and other alkaloids. MAOs are enzymes located on the outer membrane of mitochondria and are involved in the catabolism of monoamine neurotransmitters. There are two well-characterized isoenzymes: MAO-A, which predominantly catabolizes serotonin and norepinephrine, and MAO-B, which preferentially catabolizes benzylamine and phenylethylamine. Dopamine and tyramine are metabolized by both isoforms.
To detect the activity of MAO, a luminescent method (MAO-Glo Assay kit, from Promega, Cat #V1401) was used. In this method, a MAO substrate (a derivative of beetle luciferin provided in the kit) is mixed with the compound to be tested (in this case, myosmine and control compounds). Then, the MAO enzymes (either A or B, purchased separately) are added to the mixture and incubated with the reaction for 1 hour at room temperature. The MAO enzymes, if not inhibited by the test compound, will convert the substrate into methyl ester luciferin. Finally, a luciferin detection reagent (provided by the kit) is added (20 minutes at room temperature) to stop the MAO reaction and convert methyl ester luciferin into D-luciferin. […] The luminescent signal is measured and recorded using a luminometer. […]

For `C#CCN(C)CCCOc1ccc(Cl)cc1Cl` [clorgyline, reference compound], the “inhibition of the enzymatic activity of MAO-A (in words, curve position)” value is “greatly shifted leftward”.
